The values that follow come from article PMC3539163 (Steroids, 2011).

Experiment [1] deals with transcription of 24-hydroxylase in rat osteosarcoma cells. Kind of experiment: CYP24A1 transcription. Format: cell-based. The settings on record: relative to 1 (1,25(OH)2D3).
Experiment [2] has as its system human promyeloid leukemia (HL-60) cells. Kind of experiment: HL-60 differentiation. In kind it is cell-based. The settings on record: relative to 1 (1,25(OH)2D3).

SMILES strings stand for the structures.

Take `C=C1/C(=C\C=C2/CCC[C@]3(C)[C@@H]([C@H](C)CCCC(C)(C)O)CC[C@@H]23)C[C@@H](O)C[C@@H]1O` [compound 1, 1α,25-dihydroxyvitamin D3, reference compound]: in experiment [1], the “CYP24A1 transcription Ratio” value worked out at 1. Besides, the “HL-60 differentiation Ratio” value in experiment [2] is recorded as 1.
